Source: PMC6150325 (Molecules : A Journal of Synthetic Chemistry and Natural …, 2017)
Several values for one entry are separate records, joined by “and”; a condition that tells them apart may be missing. Equal values may be shown once.

Molecular target: viral influenza A/California/04/2009 (H1N1) neuraminidase (H1N1-NA) (Influenza A virus (A/California/04/2009(H1N1)), UniProt C3W5S3)
Experiment: biochemical

Row | SMILES | IC50 (IC50) | IC50 (IC50 (Viral))
1 | CCC(CC)O[C@@H]1C=C(C(=O)O)C[C@H](N)[C@H]1NC(C)=O [oseltamivir carboxylate, reference compound] | ~10 nM | 10.2 nM and 10 nM
2 | CC(=O)N[C@H]1[C@H]([C@H](O)[C@H](O)CO)OC(C(=O)O)=C[C@@H]1N=C(N)N [zanamivir, 2,4-dideoxy-2,3-didehydro-4-guanidino-N-acetylneuraminic acid, reference compound] | ~10 nM | 11.1 nM and 10 nM
